Source: PubChem BioAssay AID1347404 (Pan Lab, Icahn School of Medicine at Mount Sinai, 2020)
The list shows a part of the results, in another mix than the full data. Some tests of the compounds listed are not included; inactive here does not mean inactive elsewhere. Calls of active or inactive are those of the source. Rule as the data show it: active = inhibition above about 25%; inactive = the rest.

Sequences of proteins named here, by UniProt entry; tags and fusion partners are left off.
UniProt P62877, whole entry, looked up: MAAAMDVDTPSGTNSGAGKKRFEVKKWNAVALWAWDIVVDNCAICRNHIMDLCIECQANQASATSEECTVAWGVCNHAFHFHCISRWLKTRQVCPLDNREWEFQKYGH
UniProt Q13616, whole entry, looked up: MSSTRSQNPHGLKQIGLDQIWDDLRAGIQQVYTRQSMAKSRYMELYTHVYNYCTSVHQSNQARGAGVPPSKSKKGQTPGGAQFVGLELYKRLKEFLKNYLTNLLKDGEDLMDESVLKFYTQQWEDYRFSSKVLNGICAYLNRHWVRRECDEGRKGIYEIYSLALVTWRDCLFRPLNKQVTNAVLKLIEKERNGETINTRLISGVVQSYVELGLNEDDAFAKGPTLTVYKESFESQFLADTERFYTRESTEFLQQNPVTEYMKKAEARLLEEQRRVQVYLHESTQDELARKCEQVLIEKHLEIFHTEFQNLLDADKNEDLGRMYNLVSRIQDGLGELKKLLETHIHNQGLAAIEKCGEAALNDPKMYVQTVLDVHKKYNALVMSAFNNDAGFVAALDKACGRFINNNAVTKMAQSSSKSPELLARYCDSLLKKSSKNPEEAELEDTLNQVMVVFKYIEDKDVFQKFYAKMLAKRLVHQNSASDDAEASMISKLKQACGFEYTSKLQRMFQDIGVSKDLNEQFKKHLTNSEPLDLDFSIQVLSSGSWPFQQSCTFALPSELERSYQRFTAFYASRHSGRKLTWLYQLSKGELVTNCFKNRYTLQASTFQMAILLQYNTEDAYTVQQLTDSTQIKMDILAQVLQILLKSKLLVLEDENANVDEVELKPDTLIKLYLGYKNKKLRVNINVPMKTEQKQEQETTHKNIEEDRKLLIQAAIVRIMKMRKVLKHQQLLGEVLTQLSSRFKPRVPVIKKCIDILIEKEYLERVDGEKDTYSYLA

Each molecule was assayed against E3 ubiquitin-protein ligase RBX1 (Homo sapiens) + Cullin-1 (Homo sapiens) (UniProt P62877+Q13616) (assay: blocks human RBX1-Cullin-1 di-ubiquitin formation (AID 1347404)). Conditions: in vitro K48 di-Ub FRET, acceptor:donor ratio, 45 min; at 10 µM; hits give high values.

Row | Compound | inhibition
1 | COc1cccc(C(=O)NCC2(N3CCOCC3)CCCCC2)c1 | inactive: -3.96%
2 | CN1CCCCC1COC(=O)C(O)(c1ccccc1)c1ccccc1 (stereo unspecified) | inactive: 3.34%
3 | CC(C)COc1ccc(C(=O)NCC2(N(C)C)CCCCC2)cc1 | inactive: 5.85%
4 | Cc1cccc(C(=O)NCC2(N(C)C)CCCCC2)c1 | inactive: 3.49%
5 | COc1cc(C(=O)NCC2(N(C)C)CCCCC2)cc(OC)c1OC | inactive: 2.11%
6 | CC(C)Oc1ccc(C(=O)NCC2(N(C)C)CCCCC2)cc1 | inactive: -4.95%
7 | COc1ccc(C(=O)NCC2(N(C)C)CCCCC2)cc1Cl | inactive: -3.29%
8 | O=C(OCC1CCN(CC2CC2)CC1)C1(O)c2ccccc2Oc2ccccc21 | inactive: 12.5%
9 | CN(C)C1(CNC(=O)c2ccccc2[N+](=O)[O-])CCCCC1 | inactive: 8.26%
10 | CCCCOc1ccccc1C(=O)NCC1(N(C)C)CCCCC1 | inactive: 0.882%
11 | CCN1CCCC(OC(=O)C2(O)c3ccccc3C=Cc3ccccc32)C1 (stereo unspecified) | inactive: 10.8%
12 | COc1ccc(CC(c2ccc(C)cc2)N2CCN(C)CC2)cc1OC (stereo unspecified) | inactive: -6.14%
13 | CCOc1cccc(C(=O)NCC2(N(C)C)CCCCC2)c1 | inactive: -7.7%
14 | CN1C2CCC1CC(OC(=O)C1(O)c3ccccc3CCc3ccccc31)C2 (stereo unspecified) | inactive: 3.97%
15 | CN(C)C1(CNC(=O)c2cccc(Cl)c2)CCCCC1 | inactive: -7.18%
16 | CN(C)C1(CNC(=O)c2ccccc2F)CCCCC1 | inactive: -4.94%
